Measurements: US9901592B2 (priority 2008, dated 2018)

Test system: S. pneumoniae ATCC 49619
Assay: post-antibiotic effect (PAE) testing
Conditions: 4X MIC, exposure 1 hour

SMILES | PAE
CC[C@H]1OC(=O)[C@@](C)(F)C(=O)[C@H](C)[C@@H](OC2OC(C)CC(N(C)C)C2O)[C@@](C)(OC)C[C@@H](C)C(=O)[C@H](C)[C@H]2N(CCCCn3cc(-c4cccc(N)c4)nn3)C(=O)O[C@]12C (some centres unmarked) [CEM-101, 11-N-4-(3-aminophenyl)-[1,2,3]triazol-1-yl]-butyl}-5-desosaminyl-3-oxo-2-fluoro-erythronolide A,-11,12-cyclic carbamate] | 3.0 h
CC[C@H]1OC(=O)[C@H](C)C(=O)[C@H](C)[C@@H](O[C@@H]2O[C@H](C)C[C@H](N(C)C)[C@H]2O)[C@](C)(OC)C[C@@H](C)C(=O)[C@H](C)[C@H]2N(CCCCn3cnc(-c4cccnc4)c3)C(=O)O[C@]12C [TEL, telithromycin] | 1.9 h
